Protein sequences, listed by entry. Tags and fused reporters are not part of them.
UniProt P25095, whole entry: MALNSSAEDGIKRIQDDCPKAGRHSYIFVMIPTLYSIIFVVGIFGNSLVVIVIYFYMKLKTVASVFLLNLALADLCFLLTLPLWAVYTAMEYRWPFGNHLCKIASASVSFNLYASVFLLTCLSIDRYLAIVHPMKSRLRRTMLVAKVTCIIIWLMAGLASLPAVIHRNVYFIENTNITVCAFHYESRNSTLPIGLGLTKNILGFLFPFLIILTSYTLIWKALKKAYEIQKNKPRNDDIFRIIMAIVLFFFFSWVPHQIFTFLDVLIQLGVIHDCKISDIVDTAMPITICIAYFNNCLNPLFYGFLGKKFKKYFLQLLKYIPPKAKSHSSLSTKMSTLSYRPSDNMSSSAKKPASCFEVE

In patent US20240025949A1, “Beta-Arrestin Effectors and Compositions and Methods of Use Thereof” (Trevena, Inc., priority 2021, published 2024):

Key:
Type in all cases: cell-based
human AT1R [1] = biological target: T1, human AT1R (Homo sapiens, UniProt P30556); assay: IP1 accumulation assay (IP-One Tb), human AT1R; conditions: cells expressing human AT1R; for human AT1R IP One EC50 (M): inactive = EC50 greater than 10 uM
T1 construct: ProLink (β-galactosidase enzyme-donor fragment, from the pCMV-ProLink vector)

rat AT1aR [2] = biological target: T2, rat AT1aR (Rattus norvegicus, UniProt P25095); assay: PathHunter β-arrestin-2 recruitment assay, rat AT1aR; conditions: PathHunter β-arrestin HEK293 cells; for rat AT1aR b-arrestin2 EC50 (M): inactive = EC50 greater than 10 uM
T2 construct: ProLink (β-galactosidase enzyme-donor fragment, from the pCMV-ProLink vector)

human AT1R [3] = biological target: T1, human AT1R; assay: PathHunter β-arrestin-2 recruitment assay, human AT1R; conditions: PathHunter β-arrestin HEK293 cells
rat AT1aR [4] = biological target: T2, rat AT1aR; assay: IP1 accumulation assay (IP-One Tb), rat AT1aR; conditions: cells expressing rat AT1aR; for rat AT1aR IP One EC50 (M): inactive = EC50 greater than 10 uM

Row | SMILES | human AT1R IP One EC50 (M) (human AT1R [1]) | rat AT1aR b-arrestin2 EC50 (M) (rat AT1aR [2]) | human AT1R b-arrestin2 Max (%) (human AT1R [3]) | rat AT1aR IP One Max (%) (rat AT1aR [4]) | rat AT1aR b-arrestin2 Max (%) (rat AT1aR [2]) | human AT1R IP One Max (%) (human AT1R [1]) | rat AT1aR IP One EC50 (M) (rat AT1aR [4]) | human AT1R b-arrestin2 EC50 (M) (human AT1R [3]; inactive = EC50 greater than 10 uM)
1 | CC[C@H](C)[C@H](NC(=O)[C@@H]1CCCN1C(=O)[C@H](Cc1c[nH]cn1)NC(=O)[C@@H](NC(=O)[C@@H](NC(=O)[C@@H](NC(=O)[C@H](CCCNC(=N)N)NC(=O)CNC)C(C)C)[C@@H](C)CC)[C@@H](C)CC)C(N)=O [compound 2] | inactive | inactive | 24.9 | 33.8 | – | – | – | –
2 | CC[C@H](C)[C@H](NC(=O)[C@@H]1CCCN1C(=O)[C@H](Cc1c[nH]cn1)NC(=O)[C@@H](NC(=O)[C@@H](NC(=O)[C@@H](NC(=O)[C@H](CCCNC(=N)N)NC(=O)CNC)C(C)C)[C@@H](C)CC)C(C)C)C(=O)O [compound 3] | inactive | – | 36.5 | 19.6 | 67.1 | – | – | –
3 | CNCC(=O)N[C@@H](CCCNC(=N)N)C(=O)N[C@H](C(=O)NCC(=O)N[C@H](C(=O)N[C@@H](Cc1c[nH]cn1)C(=O)N1CCC[C@H]1C(=O)NCC(=O)O)C(C)C)C(C)C [compound 5] | – | – | 39.4 | 24.8 | 61.7 | 18.1 | – | –
4 | CNCC(=O)N[C@@H](CCCNC(=N)N)C(=O)N[C@H](C(=O)NCC(=O)N[C@H](C(=O)N[C@@H](Cc1c[nH]cn1)C(=O)N1CCC[C@H]1C(=O)NCC(N)=O)C(C)C)C(C)C [compound 6] | – | inactive | 12.1 | 21.9 | – | 14.1 | – | –
5 | CNCC(=O)N[C@@H](CCCNC(=N)N)C(=O)N[C@H](C(=O)N[C@@H](Cc1ccc(O)cc1)C(=O)N[C@H](C(=O)N[C@@H](Cc1c[nH]cn1)C(=O)N1CCC[C@H]1C(=O)N[C@@H](C)C(=O)O)C(C)C)C(C)C [compound 7] | inactive | – | – | – | – | – | – | –
6 | CNCC(=O)N[C@@H](CCCNC(=N)N)C(=O)N[C@H](C(=O)N[C@@H](Cc1ccc(O)cc1)C(=O)N[C@H](C(=O)N[C@@H](Cc1c[nH]cn1)C(=O)N1CCC[C@H]1C(=O)N[C@@H](C)C(N)=O)C(C)C)C(C)C [compound 8] | inactive | – | 36.9 | 11.3 | 41.8 | – | – | –
7 | CC[C@H](C)[C@H](NC(=O)[C@H](Cc1ccc(O)cc1)NC(=O)[C@@H](NC(=O)[C@H](CCCNC(=N)N)NC(=O)CNC)C(C)C)C(=O)N[C@@H](Cc1c[nH]cn1)C(=O)N1CCC[C@H]1C(=O)N[C@@H](C)C(=O)O [compound 9] | inactive | – | – | 9.5 | 74.0 | – | – | –
8 | CC[C@H](C)[C@H](NC(=O)[C@H](Cc1ccc(O)cc1)NC(=O)[C@@H](NC(=O)[C@H](CCCNC(=N)N)NC(=O)CNC)C(C)C)C(=O)N[C@@H](Cc1c[nH]cn1)C(=O)N1CCC[C@H]1C(=O)N[C@@H](C)C(N)=O [compound 10] | inactive | – | – | 13.3 | 60.3 | – | – | –
9 | CC[C@H](C)[C@H](NC(=O)[C@@H]1CCCN1C(=O)[C@H](Cc1c[nH]cn1)NC(=O)[C@@H](NC(=O)[C@H](Cc1ccc(O)cc1)NC(=O)[C@@H](NC(=O)[C@H](CCCNC(=N)N)NC(=O)CNC)C(C)C)C(C)C)C(=O)O [compound 11] | inactive | – | 58.9 | 24.4 | 80.7 | – | – | –
10 | CC[C@H](C)[C@H](NC(=O)[C@@H]1CCCN1C(=O)[C@H](Cc1c[nH]cn1)NC(=O)[C@@H](NC(=O)[C@H](Cc1ccc(O)cc1)NC(=O)[C@@H](NC(=O)[C@H](CCCNC(=N)N)NC(=O)CNC)C(C)C)C(C)C)C(N)=O [compound 12] | – | – | 19.9 | 44.9 | 34.4 | 20.7 | – | –
11 | CC[C@H](C)[C@H](NC(=O)[C@H](Cc1ccc(O)cc1)NC(=O)[C@@H](NC(=O)[C@@H](N)CCCNC(=N)N)C(C)C)C(=O)N[C@@H](Cc1c[nH]cn1)C(=O)N1CCC[C@H]1C(N)=O [compound 13] | inactive | – | 43.4 | – | 165.3 | – | Inactive | –
12 | CC[C@H](C)[C@H](NC(=O)[C@@H]1CCCN1C(=O)[C@H](Cc1c[nH]cn1)NC(=O)[C@H](Cc1ccc(O)cc1)NC(=O)[C@H](Cc1ccc(O)cc1)NC(=O)[C@@H](NC(=O)[C@H](CCCNC(=N)N)NC(=O)CNC)C(C)C)C(=O)O [compound 14] | – | – | 59.3 | 19.3 | 79.0 | 13.5 | – | –
13 | CC[C@H](C)[C@H](NC(=O)[C@@H]1CCCN1C(=O)[C@H](Cc1c[nH]cn1)NC(=O)[C@H](Cc1ccc(O)cc1)NC(=O)[C@H](Cc1ccc(O)cc1)NC(=O)[C@@H](NC(=O)[C@H](CCCNC(=N)N)NC(=O)CNC)C(C)C)C(N)=O [compound 15] | – | – | 44.3 | 51.1 | 62.1 | 19.3 | – | –
14 | CC[C@H](C)[C@H](NC(=O)[C@@H]1CCCN1C(=O)[C@H](Cc1c[nH]cn1)NC(=O)[C@H](CCC(=O)O)NC(=O)[C@H](Cc1ccc(O)cc1)NC(=O)[C@@H](NC(=O)[C@H](CCCNC(=N)N)NC(=O)CNC)C(C)C)C(=O)O [compound 16] | inactive | – | 56.9 | 24.4 | 76.9 | – | – | –
15 | CNCC(=O)N[C@@H](CCCNC(=N)N)C(=O)N[C@H](C(=O)N[C@@H](Cc1ccc(O)cc1)C(=O)N[C@@H](Cc1ccc(O)cc1)C(=O)N[C@@H](Cc1c[nH]cn1)C(=O)N1CCC[C@H]1C(=O)N[C@@H](C)C(=O)O)C(C)C [compound 19] | inactive | – | 67.9 | – | 91.2 | – | Inactive | –
16 | CNCC(=O)N[C@@H](CCCNC(=N)N)C(=O)N[C@H](C(=O)N[C@@H](Cc1ccc(O)cc1)C(=O)N[C@@H](CCC(=O)O)C(=O)N[C@@H](Cc1c[nH]cn1)C(=O)N1CCC[C@H]1C(=O)N[C@@H](C)C(=O)O)C(C)C [compound 20] | inactive | – | – | – | 86.6 | – | Inactive | inactive
17 | CNCC(=O)N[C@@H](CCCNC(=N)N)C(=O)N[C@H](C(=O)N[C@@H](Cc1ccc(O)cc1)C(=O)N[C@@H](Cc1ccccc1)C(=O)N[C@@H](Cc1c[nH]cn1)C(=O)N1CCC[C@H]1C(=O)N[C@@H](C)C(=O)O)C(C)C [compound 21] | inactive | – | 64.4 | – | 82.7 | – | Inactive | –
18 | CC[C@H](C)[C@H](NC(=O)[C@H](Cc1cc(I)c(O)c(I)c1)NC(=O)[C@@H](NC(=O)[C@H](CCCNC(=N)N)NC(=O)CNC)C(C)C)C(=O)N[C@@H](Cc1c[nH]cn1)C(=O)N1CCC[C@H]1C(=O)N[C@H](C)C(=O)O [compound 85] | – | – | 51.1 | 23.4 | 75.5 | – | – | –
